Experimental data published in patent US10988485B2 (Amgen Inc., priority 2018, dated 2021).

By UniProt entry, the sequences of proteins in these tests, tags left out. Residues count along the entry.
UniProt P01116, 1-169 isoform 2 C118A/G12C limits assumed: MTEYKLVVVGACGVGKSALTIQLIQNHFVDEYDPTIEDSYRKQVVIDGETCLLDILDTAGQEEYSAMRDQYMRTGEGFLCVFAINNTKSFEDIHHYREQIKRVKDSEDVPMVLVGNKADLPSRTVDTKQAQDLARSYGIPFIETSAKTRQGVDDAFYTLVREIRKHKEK

Legend:
[1] = target: GDP-bound KRAS protein (aa 1-169), containing both G12C and C118A amino acid substitutions (Homo sapiens, UniProt P01116, C118A/G12C); test: Coupled Nucleotide Exchange Assay (SOS-mediated nucleotide exchange, AlphaScreen); settings: read-out: Coupled Exchange IC50; compound pre-incubation either 5 min or 2 hours (not stated per compound); SOS and GTP added, cRAF AlphaScreen read-out
Experimental: (§1) For compounds in Table 6, the following assay conditions were employed:
Coupled Nucleotide Exchange Assay: Purified GDP-bound KRAS protein (aa 1-169), containing both G12C and C118A amino acid substitutions and an N-terminal His-tag, was pre-incubated in assay buffer (25 mM HEPES pH 7.4, 10 mM MgCl2, and 0.01% Triton X-100) with a compound dose-response titration for either 5 min or 2 hours (see Table 15). Following compound pre-incubation, purified SOS protein (aa 564-1049) and GTP (Roche 10106399001) were added to the assay wells and incubated for an additional 30 min (for 5 min compound pre-incubation) or 1 hour (for 2 hour compound pre-incubation). To determine the extent of inhibition of SOS-mediated nucleotide exchange, purified GST-tagged cRAF (aa 1-149), nickel chelate AlphaLISA acceptor beads (PerkinElmer AL108R), and AlphaScreen glutathione donor beads (PerkinElmer 6765302) were added to the assay wells and incubated for 10 minutes. The assay plates were then read on a PerkinElmer EnVision Multilabel Reader, using AlphaScreen® technology, and data were analyzed using a 4-parameter logistic model to calculate IC50 values.

[2] = tested on: Phosphorylation of ERK1/2 in MIA PaCa-2 cells; test: Phospho-ERK1/2 MSD Assay; settings: read-out: p-ERK IC50 (MIA-PaCa-2), compound 2 or 4 hours, then 10 ng/mL EGF for 10 min
Experimental: as §1
Phospho-ERK1/2 MSD Assay: MIA PaCa-2 (ATCC® CRL-1420™) cells were cultured in RPMI 1640 Medium (ThermoFisher Scientific 11875093) containing 10% fetal bovine serum (ThermoFisher Scientific 16000044) and 1× penicillin-streptomycin-glutamine (ThermoFisher Scientific 10378016). Sixteen hours prior to compound treatment, MIA PaCa-2 cells were seeded in 96-well cell culture plates at a density of 25,000 cells/well and incubated at 37° C., 5% CO2. A compound dose-response titration was diluted in growth media, added to appropriate wells of a cell culture plate, and then incubated at 37° C., 5% CO2 for 2 or 4 hours. Following compound treatment, cells were stimulated with 10 ng/mL EGF (Roche 11376454001) for 10 min, washed with ice-cold Dulbecco's phosphate-buffered saline, no Ca^2+ or Mg^2+ (ThermoFisher Scientific 14190144), and then lysed in RIPA buffer (50 mM Tris-HCl pH 7.5, 1% Igepal, 0.5% sodium deoxycholate, 150 mM NaCl, and 0.5% sodium dodecyl sulfate) containing protease inhibitors (Roche 4693132001) and phosphatase inhibitors (Roche 4906837001). […] Assay plates were read on a Meso Scale Discovery Sector imager 6000, and data were analyzed using a 4-parameter logistic model to calculate IC50 values.

- IC50 [1]: 80 nM
- IC50 [2]: 70 nM
Structure (SMILES): C=CC(=O)N1C[C@H](C)N(C2=NS(=O)(=O)N(c3ccc(CN(C)C)cc3C(C)(C)C)c3nc(-c4ccccc4F)c(Cl)cc32)C[C@H]1C
